Measured values: US20210115124A1 (Genentech, published 2021)

Protein sequences, listed by entry. Tags and fused reporters are not part of them. Chains listed by the source or under a name are the forms on record and can include a tag or linker.
UniProt P15692, other isoform, or with tags, fused parts or gaps limits assumed: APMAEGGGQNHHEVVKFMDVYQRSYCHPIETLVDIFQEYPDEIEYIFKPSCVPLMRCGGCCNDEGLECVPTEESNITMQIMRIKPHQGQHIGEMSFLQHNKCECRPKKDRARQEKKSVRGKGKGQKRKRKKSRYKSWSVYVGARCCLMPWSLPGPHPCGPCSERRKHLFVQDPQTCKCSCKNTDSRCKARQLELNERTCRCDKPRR

Legend:
human VEGF (hVEGF) [1] = target: T1, human VEGF (hVEGF) (human, UniProt P15692 181-395); experiment: SPR single-cycle
T1 construct: also called VEGF-A

human VEGF (hVEGF) [2] = target: T1, human VEGF (hVEGF); experiment: BIACORE SPR on immobilised hVEGF; label beside the mutation on the structure of the VEGF-bound G6 Fab (PDB 2FJG)

B1: G6.31 HC-V2R (Fab, name in Kabat numbering, V domains shown)
VH: ERQLVESGGGLVQPGGSLRLSCAASGFTISDYWIHWVRQAPGKGLEWVAGITPAGGYTYYADSVKGRFTISADTSKNTAYLQMNSLRAEDTAVYYCARFVFFLPYAMDYWGQGTLVTVSS
VL: DIQMTQSPSSLSASVGDRVTITCRASQDVSTAVAWYQQKPGKAPKLLIYSASFLYSGVPSRFSGSGSGTDFTLTISSLQPEDFATYYCQQGYGNPFTFGQGTKVEIK
notes: Fab
Fold difference (relative to G6.31) (human VEGF (hVEGF) [1]): 2.1 fold
Kd (human VEGF (hVEGF) [1]): 730 pM
koff (human VEGF (hVEGF) [1]): 0.000341 s⁻¹
kon (human VEGF (hVEGF) [1]): 464000 M⁻¹ s⁻¹
fold change in binding affinity (Kd) compared to G6.31 (human VEGF (hVEGF) [2]): 2 x
